Inhibition data for 90 compounds are collected here from PubChem BioAssay AID504523 (Broad Institute, 2011).

Sequences of proteins named here, by UniProt entry; tags and fusion partners are left off.
UniProt Q14145, whole entry: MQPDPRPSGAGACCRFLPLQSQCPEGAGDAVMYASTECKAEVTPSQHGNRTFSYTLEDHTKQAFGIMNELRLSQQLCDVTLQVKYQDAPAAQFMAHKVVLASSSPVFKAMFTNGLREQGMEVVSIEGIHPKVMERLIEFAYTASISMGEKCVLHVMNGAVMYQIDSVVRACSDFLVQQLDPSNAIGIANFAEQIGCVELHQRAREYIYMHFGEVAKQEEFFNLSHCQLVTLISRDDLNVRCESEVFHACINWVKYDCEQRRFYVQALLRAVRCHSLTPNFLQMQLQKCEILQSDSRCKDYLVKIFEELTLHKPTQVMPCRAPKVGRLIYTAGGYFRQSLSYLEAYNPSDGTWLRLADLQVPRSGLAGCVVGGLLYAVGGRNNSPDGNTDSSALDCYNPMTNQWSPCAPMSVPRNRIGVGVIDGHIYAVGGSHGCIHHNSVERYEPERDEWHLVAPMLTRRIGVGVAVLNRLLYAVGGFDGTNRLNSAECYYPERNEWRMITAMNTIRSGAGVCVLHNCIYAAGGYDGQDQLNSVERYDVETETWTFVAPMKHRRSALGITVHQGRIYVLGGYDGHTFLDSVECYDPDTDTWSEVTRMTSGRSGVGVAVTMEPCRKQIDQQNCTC
UniProt Q16236, whole entry partner: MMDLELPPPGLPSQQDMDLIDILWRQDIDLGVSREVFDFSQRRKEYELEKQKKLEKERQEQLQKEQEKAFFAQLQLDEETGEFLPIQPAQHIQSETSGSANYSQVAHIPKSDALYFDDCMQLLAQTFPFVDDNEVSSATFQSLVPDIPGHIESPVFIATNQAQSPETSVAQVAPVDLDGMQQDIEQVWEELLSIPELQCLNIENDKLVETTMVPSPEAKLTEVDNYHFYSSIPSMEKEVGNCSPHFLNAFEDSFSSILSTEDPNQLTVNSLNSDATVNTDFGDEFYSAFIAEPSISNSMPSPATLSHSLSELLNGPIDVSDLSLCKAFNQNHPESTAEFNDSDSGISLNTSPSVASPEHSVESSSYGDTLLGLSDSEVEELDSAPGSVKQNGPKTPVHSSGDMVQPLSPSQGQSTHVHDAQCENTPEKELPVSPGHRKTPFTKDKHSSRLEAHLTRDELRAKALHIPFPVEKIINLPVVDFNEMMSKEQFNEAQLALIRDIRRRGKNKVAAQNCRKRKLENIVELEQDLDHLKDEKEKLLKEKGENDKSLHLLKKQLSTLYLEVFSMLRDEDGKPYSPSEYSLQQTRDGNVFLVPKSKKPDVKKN

Only a part is listed here, and it is no random draw. Some salts or complexes appear as unconnected parts, following the source record. The source made the active and inactive calls. Cut-off read from the data, not from the text of the source: active = inhibition above about 12%; inconclusive = no clear call, values can overlap the other calls; inactive = below about 7.3%.

For this test, the target named is Kelch-like ECH-associated protein 1 (Homo sapiens) (UniProt Q14145). Description: Keap1-Nrf2 protein-protein interaction inhibitors, primary screen, biochemical, fluorescence polarization, single point (AID 504523).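 Note: human Keap1 Kelch domain with fluorescein labeled Nrf2 9mer peptide probe; 0% = neutral control wells and 100% = peptide positive control; higher means more block of Keap1 binding to Nrf2 peptide.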 Conditions: Keap1 Kelch-Nrf2 peptide fluorescence polarization, 1536-well; at 9.4 µM; stronger effect = higher value.
For the compound `Cc1cc(C)cc(OP(C)(=O)Nc2ccc(C)cc2C)c1` (stereo not given), the inhibition is inactive: 0.472%. In the case of `CCOC(=O)c1ccc(NP(C)(=O)Oc2cc(C)cc(C)c2)cc1` (stereo not given), the inhibition is inactive: 7.28%.

As to `COc1ccccc1OP(C)(=O)Nc1cccc(Br)c1` (stereo not given), the inhibition was inactive: -0.638%. Regarding `Cc1cc(C)cc(OP(C)(=O)Nc2ccccn2)c1` (stereo not given), the inhibition is inactive: -3.44%. `CP(=O)(Nc1cccc(Br)c1)Oc1ccccc1` (stereo not given): the inhibition was inactive: -0.775%.

With `Cc1ccc(C)c(NP(C)(=O)Oc2ccccc2)c1` (stereo not given), the inhibition is inactive: 0.303%.

Consider `O=C(O)c1cccc(Nc2c([N+](=O)[O-])cc([N+](=O)[O-])cc2[N+](=O)[O-])c1`, for which the inhibition was inactive: -6.72%. The result for `CC1=NCCc2c1[nH]c1ccccc21.O=[N+]([O-])c1cc([N+](=O)[O-])c(O)c([N+](=O)[O-])c1` reads inactive: -3.97%. With `CCOC(=O)C(CC)C1=NC(C)(C)Cc2ccccc21.O=[N+]([O-])c1cc([N+](=O)[O-])c(O)c([N+](=O)[O-])c1` (stereo not given), the inhibition was inactive: -5.43%. As for `CC1=C2N=C(C=C3N=C(C(C)=C4[N-][C@@](C)([C@@H]5N=C1[C@](C)(CCC(=O)NC[C@@H](C)OP(=O)([O-])O[C@H]1[C@@H](O)[C@@H](n6cnc7cc(C)c(C)cc76)O[C@@H]1CO)[C@H]5CC(N)=O)[C@@](C)(CC(N)=O)[C@@H]4CCC(N)=O)[C@@](C)(CC(N)=O)[C@@H]3CCC(N)=O)C(C)(C)[C@@H]2CCC(N)=O.[C-]#N.[Co+3]`, the inhibition is inactive: -1.67%. On to `O=[N+]([O-])c1cc([N+](=O)[O-])c(Nc2nnnn2CCO)c([N+](=O)[O-])c1`, for which the inhibition was inactive: 0.16%. Consider `CCCOc1ccc(NP(C)(=O)Oc2ccc(Cl)cc2)cc1` (stereo not given), for which the inhibition is inactive: 3.28%. Turning to `CP(=O)(Nc1ccc(SC(F)(F)F)cc1)Oc1ccccc1` (stereo not given), the inhibition is inactive: 1.71%.

On to `COc1ccccc1OP(C)(=O)Nc1c(C)cccc1C` (stereo not given), for which the inhibition is inactive: -1.47%. Consider `CN1CCCCC1COC(=O)C1(O)c2ccccc2CCc2ccccc21` (stereo not given), for which the inhibition is inactive: -3.15%. Take `O=[N+]([O-])c1cc([N+](=O)[O-])c(-n2nnc3ccccc32)c([N+](=O)[O-])c1`: the inhibition is inactive: 0.45%. Consider `Cc1nc2ccc3ccccc3c2s1.O=[N+]([O-])c1cc([N+](=O)[O-])c(O)c([N+](=O)[O-])c1`, for which the inhibition was inactive: -1.63%.

Regarding `O=[N+]([O-])c1cc([N+](=O)[O-])c(-c2cnn(-c3ccccc3)c2)c([N+](=O)[O-])c1`, the inhibition is inactive: 0.843%.

Take `Cc1cc(C)cc(OP(C)(=O)Nc2ccc(SC(F)(F)F)cc2)c1` (stereo not given): the inhibition was inactive: -3.76%.

`CP(=O)(NC(=O)Nc1ccccc1)Oc1ccccc1` (stereo not given): the inhibition was inactive: -2.02%. For the compound `CCc1ccc(OP(C)(=O)N2CCN(c3ccc([N+](=O)[O-])cc3)CC2)cc1` (stereo not given), the inhibition is inactive: -7.69%. Turning to `CP(=O)(Oc1ccccc1)OC(c1ccccc1)C(F)(F)F` (stereo not given), the inhibition is inactive: 1.84%.

As for `Cc1cccc(C)c1OP(C)(=O)Nc1ccc(SC(F)(F)F)cc1` (stereo not given), the inhibition is inactive: -0.858%. The result for `CP(=O)(Nc1ccccn1)Oc1ccc(Cl)cc1` (stereo not given) reads inactive: -0.7%; that for `CCOP(C)(=S)SCC(=O)NC(C)C(=O)O` (stereo not given), inactive: -1.16%. `CCOC(=O)c1ccc(NP(C)(=O)Oc2ccc(OC)cc2)cc1` (stereo not given): the inhibition is inactive: 0.899%.

With `COc1ccccc1OP(C)(=O)Nc1ccccc1` (stereo not given), the inhibition was inactive: 0.039%. Take `CP(=O)(Nc1ccccc1Br)Oc1ccccc1` (stereo not given): the inhibition was inactive: 0.168%. `CP(=S)(Nn1cnnc1)Oc1ccccc1` (stereo not given): the inhibition is inactive: 1.44%. Regarding `Cc1cccc(C)c1OP(C)(N)=O` (stereo not given), the inhibition is inactive: 2.11%.

With `CC(C)(C)c1ccc(OP(C)(=O)Nc2ccc(SC(F)(F)F)cc2)cc1` (stereo not given), the inhibition is inactive: -6.47%.

On to `O=[N+]([O-])c1ccc2c(c1)C=Nc1ccccc1O2`, for which the inhibition was inactive: -6.63%. Consider `O=[N+]([O-])c1cc([N+](=O)[O-])c(Nc2cccnc2)c([N+](=O)[O-])c1`, for which the inhibition was inactive: -0.435%. With `COc1ccc(OP(C)(=O)Nc2cccc(F)c2)cc1` (stereo not given), the inhibition was inactive: -7.33%.

For `COc1ccccc1OP(C)(=O)Nc1cc(Cl)ccc1C` (stereo not given), the inhibition was inactive: 0.112%. The result for `Cc1cc(C)cc(OP(C)(N)=O)c1` (stereo not given) reads inactive: -5.51%; that for `CCOC(=O)c1ccc(NP(C)(=O)Oc2ccccc2)cc1` (stereo not given), inactive: -0.593%.

Turning to `Cc1ccc(NP(C)(=O)Oc2ccccc2)c(C)c1` (stereo not given), the inhibition was inactive: -1.5%. Take `COc1ccccc1OP(C)(=O)Nc1ccc(C)cc1` (stereo not given): the inhibition was inactive: -4.54%.

As for `CCN(CC)CCCOC(=O)C(O)(c1ccccc1)c1ccccc1`, the inhibition is inactive: 2.53%. `CN(C)CCOC(=O)C(O)(c1ccccc1)C1CCCC1` (stereo not given): the inhibition is inactive: -2.31%. Regarding `COc1ccc(OP(C)(=O)Nc2ccccn2)cc1` (stereo not given), the inhibition was inactive: -5.87%. Consider `COc1ccccc1OP(C)(=O)Nc1ccc(Br)cc1` (stereo not given), for which the inhibition was inactive: -2.48%. With `CCc1ccc(OP(C)(=O)O)cc1`, the inhibition is inactive: -2.25%. The result for `COc1ccccc1OP(C)(=O)Nc1ccc(C)cc1C` (stereo not given) reads inactive: 3.5%; that for `CP(=O)(Nc1ccccn1)Oc1ccccc1` (stereo not given), inactive: -1.89%; that for `Cc1c(NP(C)(=O)Oc2ccc(C(C)C)cc2)c(=O)n(-c2ccccc2)n1C` (stereo not given), inactive: 4.8%. For `O=[N+]([O-])c1cc([N+](=O)[O-])c(Nc2ccccn2)c([N+](=O)[O-])c1` the value was inactive: -2.58%; for `COc1ccc(OP(C)(=O)Nc2ccccc2Br)cc1` (stereo not given), inactive: -1.04%; for `COc1ccccc1OP(C)(=O)Nc1ccc(C)c(C)c1` (stereo not given), inactive: -5.16%. Regarding `Cc1cc(C)cc(OP(C)(=O)Nc2cccc(C(F)(F)F)c2)c1` (stereo not given), the inhibition is inactive: 1.24%. In the case of `O=C1C(O)=C([N+](=O)[O-])C(=O)C(O)=C1[N+](=O)[O-]`, the inhibition is inactive: -4.96%. Consider `CCCCCCCCCCCCCCCC1C[N+](C)(C)CCOP(C)(=O)O1` (stereo not given), for which the inhibition was inactive: 4.06%. With `CP(=O)(Nc1ccc(Cl)cc1Cl)Oc1ccccc1` (stereo not given), the inhibition is inactive: -7.25%. In the case of `CP(=O)(OCCOc1ccccc1)OCCOc1ccccc1`, the inhibition is inactive: -2.87%. The result for `CP(=O)(OC12CC3CC(CC(C3)C1)C2)OC12CC3CC(CC(C3)C1)C2` reads inactive: -1.3%; that for `CCOC(=O)c1ccc(NP(C)(=O)Oc2ccc(Cl)cc2)cc1` (stereo not given), inactive: -6.93%; that for `CCc1ccc(OP(C)(=O)Nc2cccnc2)cc1` (stereo not given), inactive: -0.64%. For `CP(=O)(Oc1ccccc1)N1CCOC1=O` (stereo not given) the value was inactive: -0.056%; for `O=C(OCCCN1CCCC1)C(O)(c1ccccc1)C1CCCCC1` (stereo not given), inactive: 2.35%; for `COc1ccccc1OP(C)(=O)Nc1c(C)n(C)n(-c2ccccc2)c1=O` (stereo not given), inactive: -1.45%.

Regarding `COc1ccc(OP(C)(=O)Nc2ccc(Br)cc2)cc1` (stereo not given), the inhibition was inactive: -5.93%.

With `CCN(CC)CC(O)COC(=O)C(O)(c1ccccc1)C1CCCCC1` (stereo not given), the inhibition was inactive: 1.83%.

As for `CN(C)C(=O)c1c([N+](=O)[O-])cc([N+](=O)[O-])cc1[N+](=O)[O-]`, the inhibition was inactive: -4.45%. For the compound `CP(=O)(Nc1ccc(Cl)cc1)Oc1ccc(F)cc1` (stereo not given), the inhibition is inactive: -3.39%. With `COc1ccccc1OP(C)(=O)Nc1ccccc1Br` (stereo not given), the inhibition is inactive: -3.07%. As for `CC(C)(C)c1ccc(OP(C)(=O)O)cc1`, the inhibition is inactive: -3.66%. The result for `CCOP(C)(=S)SCC(=O)NC(C)(CC)C(=O)O` (stereo not given) reads inactive: -5.81%. With `CP(=O)(Nc1ccc(SC(F)(F)F)cc1)Oc1ccc(F)cc1` (stereo not given), the inhibition was inactive: -3.89%. Consider `Cc1ccccc1NP(C)(=O)Nc1ccccc1C`, for which the inhibition is inactive: -1.06%. Consider `CP(=O)(Nc1ccc2c(c1)OCCO2)Oc1ccccc1` (stereo not given), for which the inhibition is inactive: 0.526%.

In the case of `COc1ccc(NP(C)(=O)Oc2ccccc2OC)cc1` (stereo not given), the inhibition was inactive: 2.12%.

Turning to `CN(C)CCOC(=O)C(O)(c1ccccc1)C1CCCCC1` (stereo not given), the inhibition was inactive: -3.35%. On to `COc1ccc(OP(C)(=O)Nc2cccc(Br)c2)cc1` (stereo not given), for which the inhibition was inactive: 0.828%.

Take `Cc1c(C(c2ccc3c(c2)OCO3)c2c(C)n(C)n(-c3ccccc3)c2=O)c(=O)n(-c2ccccc2)n1C.O=[N+]([O-])c1cc([N+](=O)[O-])c(O)c([N+](=O)[O-])c1`: the inhibition was inactive: -6.49%. Regarding `Cc1cc(-c2cccc3ccccc23)c(C)cn1.O=[N+]([O-])c1cc([N+](=O)[O-])c(O)c([N+](=O)[O-])c1`, the inhibition was inactive: -2.83%. For `O=[N+]([O-])c1cc([N+](=O)[O-])c(NCC2CCS(=O)(=O)C2)c([N+](=O)[O-])c1` (stereo not given) the value was inactive: -2.06%; for `O=[N+]([O-])c1ccc(OP2(=O)COCCO2)cc1` (stereo not given), inactive: -2.57%. As for `COc1ccc(OP(C)(=O)Nc2ccc(SC(F)(F)F)cc2)cc1` (stereo not given), the inhibition was inactive: -1.4%. As to `CCOC(=O)c1ccc(NP(C)(=O)Oc2ccc(F)cc2)cc1` (stereo not given), the inhibition was inactive: -2.4%.

Take `CCCCCOc1ccc(NP(C)(=O)Oc2ccc(Cl)cc2Cl)cc1` (stereo not given): the inhibition was inactive: -3%. The result for `O=[N+]([O-])c1cc([N+](=O)[O-])c(OC2CCCCC2O)c([N+](=O)[O-])c1` (stereo not given) reads inactive: -1.12%; that for `CP(=O)(Nc1ccccc1)Oc1ccc(F)cc1` (stereo not given), inactive: -10.3%.

Take `CCN(CC)CCCOC(=O)C(O)(c1ccccc1)C1CCCCC1` (stereo not given): the inhibition is inactive: -1.37%.

On to `Cc1c([N+](=O)[O-])cc([N+](=O)[O-])c(Br)c1[N+](=O)[O-]`, for which the inhibition was inactive: -6.8%. Regarding `CC(C)c1ccc(OP(C)(=O)Nc2ccc(SC(F)(F)F)cc2)cc1` (stereo not given), the inhibition is inactive: 3.99%. With `CP(=O)(Nc1ccccc1F)Oc1ccccc1` (stereo not given), the inhibition is inactive: -3.89%. Turning to `COc1ccc2c(c1O)-c1c(O)c(OC)cc3c1[C@H](C2)[N+](C)(C)CC3.O=[N+]([O-])c1cc([N+](=O)[O-])c([O-])c([N+](=O)[O-])c1[O-]`, the inhibition is inactive: 3.17%. On to `O=C(OCCN1CCN(CCOCc2ccccc2)CC1)C(O)(c1ccccc1)c1ccccc1`, for which the inhibition was inactive: -1.48%. Take `O=C(OC1CN2CCC1CC2)c1ccc([N+](=O)[O-])cc1` (stereo not given): the inhibition was inactive: -1.98%.
